Biological target: KOR (Homo sapiens, UniProt P41145)
Test: Beta-lactamase reporter gene assay (FRET), KOR
Format: cell-based
Details: read-out: KOR EC50; β-lactamase assay, agonist mode, CHO-K1 cells; mean ± SEM, 2–3 independent experiments in duplicates

Chains of the proteins cited; added tags and fusions are not shown. Lines headed by an entry give the natural chain unless they say otherwise; changes in a name come on top.
UniProt P41145: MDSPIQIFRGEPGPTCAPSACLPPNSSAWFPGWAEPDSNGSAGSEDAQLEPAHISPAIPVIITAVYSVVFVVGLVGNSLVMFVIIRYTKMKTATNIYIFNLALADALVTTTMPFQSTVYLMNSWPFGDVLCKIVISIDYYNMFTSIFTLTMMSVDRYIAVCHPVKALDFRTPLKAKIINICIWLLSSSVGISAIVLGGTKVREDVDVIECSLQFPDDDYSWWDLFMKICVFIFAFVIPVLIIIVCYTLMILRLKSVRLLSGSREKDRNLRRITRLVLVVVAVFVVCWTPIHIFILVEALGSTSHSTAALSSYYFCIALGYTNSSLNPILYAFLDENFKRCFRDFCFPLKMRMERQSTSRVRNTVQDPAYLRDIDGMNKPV

For (±)-trans-U-50488 methanesulfonate salt, the EC50 was 1.4 nM.

Reference: article PMC8396344, “Palmitoylation of Prolactin-Releasing Peptide Increased Affinity for and Activation of the GPR10, NPFF-R2 and NPFF-R1 Receptors: In Vitro Study” (International Journal of Molecular Sciences, 2021)
